Laboratory results reported in ChEMBL document CHEMBL1145905, “Design and synthesis of novel dimeric morphinan ligands for kappa and micro opioid receptors” (J Med Chem, 2003).

Amino acid sequences for entries named in this document (tags omitted). A change or cut given only in a name is not applied to a line headed by its entry.
UniProt P41145: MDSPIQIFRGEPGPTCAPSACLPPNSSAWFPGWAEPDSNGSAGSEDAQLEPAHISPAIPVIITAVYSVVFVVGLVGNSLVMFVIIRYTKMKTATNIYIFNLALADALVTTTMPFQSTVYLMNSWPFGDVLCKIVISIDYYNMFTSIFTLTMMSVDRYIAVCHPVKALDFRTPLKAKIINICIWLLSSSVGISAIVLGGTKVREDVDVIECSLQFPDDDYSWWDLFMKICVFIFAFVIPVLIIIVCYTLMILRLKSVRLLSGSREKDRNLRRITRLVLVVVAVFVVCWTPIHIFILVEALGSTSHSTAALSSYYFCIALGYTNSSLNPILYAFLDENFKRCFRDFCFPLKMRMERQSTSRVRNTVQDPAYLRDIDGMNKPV
UniProt P35372, whole entry, looked up: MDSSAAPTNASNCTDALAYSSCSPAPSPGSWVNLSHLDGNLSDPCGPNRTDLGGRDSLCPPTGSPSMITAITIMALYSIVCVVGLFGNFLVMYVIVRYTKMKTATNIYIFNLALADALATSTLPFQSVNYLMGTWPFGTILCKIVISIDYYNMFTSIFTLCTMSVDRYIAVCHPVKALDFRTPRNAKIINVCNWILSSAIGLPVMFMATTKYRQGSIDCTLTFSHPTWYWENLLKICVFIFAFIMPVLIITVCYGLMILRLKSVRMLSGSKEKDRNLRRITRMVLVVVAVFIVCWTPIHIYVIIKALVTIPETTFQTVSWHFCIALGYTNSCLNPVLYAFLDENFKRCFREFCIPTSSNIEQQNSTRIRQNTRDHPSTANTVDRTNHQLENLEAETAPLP
UniProt P41143, whole entry, looked up: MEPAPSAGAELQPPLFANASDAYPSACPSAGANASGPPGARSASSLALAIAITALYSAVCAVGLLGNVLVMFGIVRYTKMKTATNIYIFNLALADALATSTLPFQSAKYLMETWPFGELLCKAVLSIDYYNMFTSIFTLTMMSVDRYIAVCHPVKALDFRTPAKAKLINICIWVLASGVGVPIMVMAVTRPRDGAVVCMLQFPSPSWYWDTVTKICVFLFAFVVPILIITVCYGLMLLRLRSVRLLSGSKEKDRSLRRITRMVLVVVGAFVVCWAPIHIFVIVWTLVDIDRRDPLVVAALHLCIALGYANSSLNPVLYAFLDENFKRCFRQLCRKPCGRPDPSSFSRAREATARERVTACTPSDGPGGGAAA

Experiments:
[1] = target: Opioid receptors; mu & kappa (Homo sapiens) (UniProt P41145+P35372); test: Selective inhibitory activity was determined against kappa & mu opioid receptor in chinese Hamster Ovary (CHO) cell membranes
[2] = target: Opioid receptors; delta & kappa (Homo sapiens) (UniProt P41145+P41143); test: Selective inhibitory activity was determined against kappa & delta opioid receptor in chinese Hamster Ovary (CHO) cell membranes

`CN(C(=O)Cc1cccc2occc12)[C@H]1CC[C@@]2(CCCO2)C[C@@H]1N1CCCC1` was tested, and the Selectivity [1] was 80 and the Selectivity [2] was > 1000.
